These results are taken from patent US7153979B2, “Triterpene derivatives and remedies for liver diseases” (Meiji Seika Kaisha, Ltd., priority 1996, dated 2006).

For the series, the system named is Hep G2 cells.

Take “21β-Methoxyolean-12-ene-3β,22β,24(4β)-triol [Compound 33]”: the hepatocytotoxicity inhibitory activity entry is “not less than 5%”.
The same measure for “21,22-Dioxolean-12-ene-3β,24(4β)-diol [Compound 36]”: “not less than 5%”.
As to “21β-Acetoxyolean-12-ene-3β,22β,24(4β)triol [Compound 27]”, the hepatocytotoxicity inhibitory activity entry is on record as “not less than 5%”.
To “Olean-12-ene-3β,21α,24(4β)-triol [Compound 49]” belongs “not less than 5%”.
The same measure for “Olean-12-ene-3β,21β,24(4β)-triol [Compound 46]”: “not less than 5%”; for “22-Oxolean-12-ene-3β,21β,24(4β)-triol [Compound 37]”: “not less than 5%”.
The same measure for “22β-Methoxy-12,13-epoxyoleanane-3β,24(4β)-diol [Compound 6]”: “not less than 5%”; for “21β,22β-Diacetoxyolean-12-ene-3β,24(4β)-diol [Compound 26]”: “not less than 5%”.
For the substance “3β,24(4β)-Dimethoxyolean-12-ene-21β,22β-diol [Compound 22]”, the hepatocytotoxicity inhibitory activity result is recorded as “not less than 5%”.
Consider “22β-Methoxyolean-12-ene-3β,21β,24(4β)-triol [Compound 32]”, for which the hepatocytotoxicity inhibitory activity entry was “not less than 5%”.
As to “N-n-Butyl-3β,22β-dihydroxyolean-12-en-24(4β)-oic amide [Compound 17]”, the hepatocytotoxicity inhibitory activity entry is listed as “not less than 5%”.
In the case of “21-Oxolean-12-en-3β,24(4β)-diol [Compound 66]”, the hepatocytotoxicity inhibitory activity entry was “not less than 5%”.
The same measure for “3β,24(4β)-Diacetoxyolean-12-ene-21β,22β-diol [Compound 20]”: “not less than 5%”; for “12α,13α-Epoxyoleanane-3β,22β,24(4β)-triol [Compound 2]”: “not less than 5%”; for “22β-Anilinocarbonyloxyolean-12-ene-3β,24(4β)-diol [Compound 73]”: “not less than 5%”.
Regarding “22β-Benzyloxyacetyloxyolean-12-ene-3β,24(4β)-diol [Compound 10]”, the hepatocytotoxicity inhibitory activity entry is on record as “not less than 5%”.
